Measured values reported in ChEMBL document CHEMBL3526116, “Toxicological evaluation of acyl glucuronides of nonsteroidal anti-inflammatory drugs using human embryonic kidney 293 cells stably expressing human UDP-glucuronosyltransferase and human hepatocytes” (Drug Metab Dispos, 2011).

Experiment: Ratio of drug level in human hepatocytes to HEK293 cells expressing UGT1A3 treated with diclofenac at 0.1 mM
Settings: 100 µM

Ratio: 6
Structure (SMILES): O=C(Cc1ccccc1Nc1c(Cl)cccc1Cl)O[C@@H]1O[C@H](C(=O)O)[C@@H](O)[C@H](O)[C@H]1O
